## Binding of CDR-mutated scFvs to a peptide of the spike HR2 region

Antigen: PDVDLGDISGINAS, a 14-residue peptide of the SARS-CoV-2 spike HR2 region.

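Phage display of a naive human antibody library on the peptide gave the parent. The library (AAYL52) carries one to three amino acid substitutions per variant, with no insertions or deletions. In AlphaSeq, yeast of one mating type display the scFv and yeast of the other type display the target. After mating in shaken culture at 30 °C for 16 h, diploids were selected and their barcode pairs sequenced. A regression on co-assayed BCL2-family reference pairs converts the normalised counts of each replicate to an apparent Kd. There are three technical replicates.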

Each scFv is VH, a (GGGGS)3 linker, VL, as in the parent Ab-95, and differs from it in the CDRs of the light chain only.
VH: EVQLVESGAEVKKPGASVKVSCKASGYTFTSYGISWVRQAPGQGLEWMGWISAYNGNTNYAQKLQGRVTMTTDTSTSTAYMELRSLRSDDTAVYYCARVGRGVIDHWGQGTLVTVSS
VL: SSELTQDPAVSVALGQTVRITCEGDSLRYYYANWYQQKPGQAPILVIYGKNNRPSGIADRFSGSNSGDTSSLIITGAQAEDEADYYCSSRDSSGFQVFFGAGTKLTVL

Positions count from residue 1 of the parent VL; Y29G puts G in place of Y.
All variants listed here change Y29 of the VL, counted from its first residue.
Each Kd is an estimate from the mating assay, the geometric mean of the replicates in which the pair was seen; lower is stronger.
A pair that was not seen in any replicate is written "nd"; this usually means weak binding, but a binder can also be missed.
Background: pairings of library AAYL52 with three empty control strains gave a value in 28% of cases (median 8.2 µM, 5th percentile 800 nM). Values in that range, when seen in few replicates, are hard to tell from nonspecific mating.

With Y29G+Y30M+S89D the result was 280 nM (3 of 3 replicates).
With L27P+Y29R+G49V the result was 8.1 µM (1 of 3 replicates).
With Y29G+V97R the result was 70 nM (3 of 3 replicates).
With Y29S+S55D+F98R the result was 46 nM (3 of 3 replicates).
With R28Y+Y29P+S92P the result was 310 nM (3 of 3 replicates).
With E23F+Y29A+N51C the result was 11 µM (3 of 3 replicates).
With Y29M+Y30F+N51Y the result was 36 µM (2 of 3 replicates).
With Y29W+Y31C+G49C the result was 20 µM (2 of 3 replicates).
With Y29M the result was 1.6 µM (3 of 3 replicates).
With G24K+Y29M+F95H the result was 2.9 µM (1 of 3 replicates).
With L27N+Y29R+Y31D the result was 220 nM (3 of 3 replicates).
With Y29G+Y31R+Q96E the result was 140 nM (3 of 3 replicates).
With Y29L+R53P+S89L the result was nd (0 of 3 replicates).
With Y29H+S92V+Q96V the result was 2.4 µM (3 of 3 replicates).
With E23I+Y29A+D91H the result was 290 nM (3 of 3 replicates).
With E23H+Y29I+S93I the result was 12 µM (1 of 3 replicates).
With Y29V+Y31A+K50F the result was 1.5 µM (3 of 3 replicates).
With E23V+D25N+Y29W the result was 1.1 µM (3 of 3 replicates).
With Y29S+P54G+S88G the result was 350 nM (3 of 3 replicates).
With Y29P+Y31A+S55G the result was 290 nM (3 of 3 replicates).
With E23W+Y29S+S88A the result was 880 nM (3 of 3 replicates).
With D25S+Y29G+S55C the result was 14 nM (3 of 3 replicates).
With Y29G the result was 7.7 nM (3 of 3 replicates).
With Y29H+S55C the result was 140 nM (3 of 3 replicates).
With Y29N+Y31W+S89I the result was 230 nM (3 of 3 replicates).
With S26E+Y29R+Q96K the result was 4.3 µM (2 of 3 replicates).
With L27Q+Y29S+S89E the result was 100 µM (1 of 3 replicates).
With Y29A+Q96E+F98C the result was 43 nM (3 of 3 replicates).
With L27Y+Y29M+P54W the result was 6.6 µM (3 of 3 replicates).
With Y29K+R53A+S93L the result was nd (0 of 3 replicates).
With R28C+Y29G+S93K the result was 1.4 µM (3 of 3 replicates).
With Y29M+Y31K+D91E the result was 5.7 µM (3 of 3 replicates).
With L27H+Y29R+F98R the result was nd (0 of 3 replicates).
With S26M+R28E+Y29V the result was 19 nM (3 of 3 replicates).
With Y29D+R53A+S55I the result was 1.1 µM (2 of 3 replicates).
With Y29R+Y31C+S55V the result was 96 nM (3 of 3 replicates).
With S26I+Y29V+F98M the result was 22 µM (3 of 3 replicates).
With Y29L+G94Q the result was 12 µM (2 of 3 replicates).
With G24D+Y29P+S93P the result was 8.1 µM (1 of 3 replicates).
With Y29W+K50E+S93H the result was 1.9 µM (2 of 3 replicates).
With Y29M+G49I+S92G the result was 20 µM (2 of 3 replicates).
With S26L+Y29H+S89H the result was 56 nM (3 of 3 replicates).
With D25N+Y29Q+S89F the result was 340 nM (3 of 3 replicates).
With E23H+Y29N+A32M the result was 160 nM (3 of 3 replicates).
With Y29A+A32T+R53Q the result was 12 µM (2 of 3 replicates).
With Y29H+K50R+S89L the result was 2.9 µM (3 of 3 replicates).
With Y29P+D91L the result was 500 nM (3 of 3 replicates).
With G24W+Y29V+K50R the result was 14 µM (2 of 3 replicates).
With Y29P+Y30C+R53Q the result was 53 µM (3 of 3 replicates).
With Y29R+S89L+R90V the result was 2.7 µM (3 of 3 replicates).

For reference, 7 entries of the list once more:

changes	apparent Kd	seen in
R28Y+Y29P+S92P	310 nM	3 of 3
G24W+Y29V+K50R	14 µM	2 of 3
Y29G	7.7 nM	3 of 3
Y29M	1.6 µM	3 of 3
S26E+Y29R+Q96K	4.3 µM	2 of 3
S26M+R28E+Y29V	19 nM	3 of 3
E23F+Y29A+N51C	11 µM	3 of 3

In this assay the parent's reference entry averaged 200 nM; its copy inside this library read 180 nM.

Values reported by Engelhart et al. 2022, doi:10.1038/s41597-022-01779-4 (FLAb copy).